Values quoted from earlier work, collected in PMC8876114, “Cytotoxicity and anti-HIV activities of extracts of the twigs of Croton dichogamus Pax” (BMC Complementary Medicine and Therapies, 2022).

Columns and labels:
Conditions in all cases: cited from earlier work
[1] = test system: SW-620
[2] = test system: CHAGO
[3] = test system: BT-474
[4] = test system: HEP-G2
[5] = test system: KATO-3

In the case of “14-ent-clerodadien-3-one [trans-cascarillone]”, the CC50 [1] is listed as 4.44 mg/mL, the CC50 [2] is listed as 6.67 mg/mL and the CC50 [3] is listed as 3.26 mg/mL. For the same substance, the CC50 [4] was 6.37 mg/mL and the CC50 [5] was 6.78 mg/mL.
